ChEMBL document CHEMBL1133449 (J Med Chem, 2000)

Target: T1, Acetylcholinesterase (Mus musculus) (UniProt P21836)
T1 sequence (whole entry): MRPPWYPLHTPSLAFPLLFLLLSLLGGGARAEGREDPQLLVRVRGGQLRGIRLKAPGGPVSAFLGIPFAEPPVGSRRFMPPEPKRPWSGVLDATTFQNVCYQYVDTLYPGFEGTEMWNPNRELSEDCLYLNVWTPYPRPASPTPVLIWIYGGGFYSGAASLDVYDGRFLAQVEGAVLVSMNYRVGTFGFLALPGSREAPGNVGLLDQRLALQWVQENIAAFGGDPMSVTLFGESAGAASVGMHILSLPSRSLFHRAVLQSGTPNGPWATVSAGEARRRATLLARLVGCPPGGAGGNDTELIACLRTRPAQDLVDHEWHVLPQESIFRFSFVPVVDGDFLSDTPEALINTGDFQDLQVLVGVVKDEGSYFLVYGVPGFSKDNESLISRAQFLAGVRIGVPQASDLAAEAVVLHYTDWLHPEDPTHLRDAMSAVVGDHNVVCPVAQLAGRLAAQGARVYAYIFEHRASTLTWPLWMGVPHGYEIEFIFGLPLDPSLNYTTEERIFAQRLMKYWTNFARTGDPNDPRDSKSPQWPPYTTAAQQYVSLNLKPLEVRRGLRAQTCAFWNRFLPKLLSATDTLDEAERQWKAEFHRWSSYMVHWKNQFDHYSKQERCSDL
Experiment: Ex Vivo evaluation of the Compound for the percentage of inhibition of brain acetylcholinesterase activity of drug-treated mice vs untreated controls (10 uM/Kg was used)

| SMILES | inhibition [%] |
| --- | --- |
| CCC1=CC2Cc3nc4cc(F)ccc4c(N)c3C(C1)C2 (configuration not stated) | 10.4 |
| CCC1=CC2Cc3nc4cccc(F)c4c(N)c3C(C1)C2 (configuration not stated) | 3.6 |
